Experimental data taken from PubChem BioAssay AID1159580 (chemical genetic matrix, 2015).
This is a selection; strong and weak results do not stand in their true shares. Active and inactive are the calls of the source. Rule as the data show it: active = normalized growth mostly below about 0.91 (no sharp cut-off); inconclusive = no clear call, values can overlap the other calls; inactive = mostly above about 0.92.

Test: chemical genetic growth profiling, strain panel (AID 1159580);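 also: tested at 20 µM; growth read once vehicle control cultures reached saturation at 30 °C; 1 = growth at the plate median or of vehicle wells; lower values mean less growth of the strain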
Conditions: S. cerevisiae deletion strains, growth OD

Measured: normalized growth

OCCSCCO
inactive: locus YAL021C, strain ccr4, stronger effect = lower value 0.969 | locus YAL026C, strain drs2, stronger effect = lower value 0.982 | locus YAL030W, strain snc1, stronger effect = lower value 1 | locus YBL061C, strain skt5, stronger effect = lower value 1.01 | locus YBR009C, strain hhf1, stronger effect = lower value 0.993 | locus YBR023C, strain chs3, stronger effect = lower value 1.02 | locus YBR171W, strain sec66, stronger effect = lower value 1.01 | locus YBR231C, strain swc5, stronger effect = lower value 0.996 | locus YBR279W, strain paf1, stronger effect = lower value 0.988 | locus YCL011C, strain gbp2, stronger effect = lower value 1.01 | locus YCL016C, strain dcc1, stronger effect = lower value 1.04 | locus YCL061C, strain MRC1, stronger effect = lower value 1.01 | locus YCL069W, strain vba3, stronger effect = lower value 0.984 | locus YCR088W, strain abp1, stronger effect = lower value 0.995 | locus YDL005C, strain med2, stronger effect = lower value 0.98 | locus YDL040C, strain nat1, stronger effect = lower value 0.989 | locus YDR001C, strain nth1, stronger effect = lower value 0.991 | locus YDR069C, strain doa4, stronger effect = lower value 0.968 | locus YDR137W, strain rgp1, stronger effect = lower value 1.01 | locus YDR159W, strain sac3, stronger effect = lower value 0.966 | locus YDR195W, strain ref2 = 0.973 | locus YDR297W, strain sur2, stronger effect = lower value 0.997 | locus YDR334W, strain swr1, stronger effect = lower value 0.995 | locus YDR335W, strain msn5, stronger effect = lower value 1 | locus YDR392W, strain spt3, stronger effect = lower value 0.943 | locus YEL003W, strain gim4, stronger effect = lower value 0.985 | locus YEL037C, strain rad23, stronger effect = lower value 0.988 | locus YEL061C, strain CIN8 (second series), stronger effect = lower value 0.978 | locus YER015W, strain faa2, stronger effect = lower value 1 | locus YER016W, strain bim1, stronger effect = lower value 1 | locus YER111C, strain swi4, stronger effect = lower value 1 | locus YER155C, strain BEM2 (second series), stronger effect = lower value 0.982 | locus YFR010W, strain ubp6, stronger effect = lower value 0.979 | locus YGL167C, strain pmr1, stronger effect = lower value 1.01 | locus YGL173C, strain kem1, stronger effect = lower value 1 | locus YGL227W, strain vid30, stronger effect = lower value 0.991 | locus YGL240W, strain doc1, stronger effect = lower value 0.993 | locus YGL253W, strain hxk2, stronger effect = lower value 0.992 | locus YHR013C, strain ard1, stronger effect = lower value 1.03 | locus YHR027C, strain rpn1, stronger effect = lower value 0.997 | locus YHR030C, strain SLT2, stronger effect = lower value 1.08 | locus YHR079C, strain IRE1, stronger effect = lower value 1.07 | locus YHR142W, strain chs7, stronger effect = lower value 1.01 | locus YJL092W, strain hpr5, stronger effect = lower value 1.01 | locus YJL095W, strain BCK1 (second series), stronger effect = lower value 1.01 | locus YJL095W, strain BCK1, stronger effect = lower value 1.07 | locus YJL115W, strain asf1, stronger effect = lower value 1 | locus YJL129C, strain trk1, stronger effect = lower value 1.05 | locus YJL154C, strain vps35, stronger effect = lower value 0.99 | locus YJL164C, strain tpk1, stronger effect = lower value 0.99 | locus YJL166W, strain qcr8, stronger effect = lower value 1.02 | locus YJL187C, strain SWE1, stronger effect = lower value 0.984 | locus YJR066W, strain TOR1, stronger effect = lower value 0.993 | locus YKL160W, strain elf1, stronger effect = lower value 1.04 | locus YKR026C, strain gcn3, stronger effect = lower value 1 | locus YKR091W, strain srl3, stronger effect = lower value 1.01 | locus YLL001W, strain dnm1, stronger effect = lower value 1.05 | locus YLL026W, stronger effect = lower value 1 | locus YLL041C, strain sdh2, stronger effect = lower value 0.989 | locus YLR027C, strain aat2, stronger effect = lower value 0.998 | locus YLR113W, strain HOG1, stronger effect = lower value 0.982 | locus YLR221C, strain rsa3, stronger effect = lower value 1.06 | locus YLR258W, strain gsy2, stronger effect = lower value 1 | locus YLR262C, strain YPT6 (second series), stronger effect = lower value 0.997 | locus YLR320W, strain mms22, stronger effect = lower value 1.06 | locus YLR342W, strain FKS1, stronger effect = lower value 0.994 | locus YLR357W, strain rsc2, stronger effect = lower value 1.02 | locus YLR370C, strain arc18, stronger effect = lower value 1.02 | locus YLR384C, strain iki3, stronger effect = lower value 1 | locus YML120C, strain ndi1, stronger effect = lower value 1.03 | locus YMR058W, strain fet3, stronger effect = lower value 0.99 | locus YMR125W, strain sto1, stronger effect = lower value 0.999 | locus YMR129W, stronger effect = lower value 0.984 | locus YMR205C, strain PFK2, stronger effect = lower value 1.04 | locus YMR231W, strain pep5, stronger effect = lower value 0.994 | locus YNL071W, strain lat1, stronger effect = lower value 0.985 | locus YNL183C, strain NPR1, stronger effect = lower value 1.02 | locus YNL209W, strain ssb2, stronger effect = lower value 0.997 | locus YNL248C, strain rpa49, stronger effect = lower value 0.96 | locus YNL322C, strain KRE1 (second series), stronger effect = lower value 1.01 | locus YNR049C, strain mso1, stronger effect = lower value 1.01 | locus YOR001W, strain rrp6, stronger effect = lower value 0.954 | locus YOR070C, strain gyp1, stronger effect = lower value 0.999 | locus YOR080W, strain dia2, stronger effect = lower value 1 | locus YOR083W, strain WHI5, stronger effect = lower value 1.05 | locus YOR106W, strain vam3, stronger effect = lower value 1.03 | locus YOR231W, strain MKK1, stronger effect = lower value 1.04 | locus YOR265W, strain rbl2, stronger effect = lower value 1.01 | locus YOR270C, strain vph1, stronger effect = lower value 1.04 | locus YOR290C, strain snf2, stronger effect = lower value 1.01 | locus YPL051W, strain arl3, stronger effect = lower value 1.01 | locus YPL078C, strain atp4, stronger effect = lower value 1.01 | locus YPL106C, strain sse1, stronger effect = lower value 1 | locus YPL240C, strain hsp82, stronger effect = lower value 1.01 | locus YPL256C, strain CLN2, stronger effect = lower value 1.09
